Measured values from ChEMBL document CHEMBL1154618, “Agonist vs antagonist behavior of delta opioid peptides containing novel phenylalanine analogues in place of Tyr(1)” (J Med Chem, 2009).
Non-standard residues stand in square brackets, D forms with d. Residues, ends and D or L forms follow the SMILES beside them. Phe(2,6-Me2,4-CONH2) = Cc1cc(C(N)=O)cc(C)c1C[C@H](N)C(=O)O; Tic = O=C(O)[C@@H]1Cc2ccccc2CN1

By UniProt entry, the sequences of proteins in these tests, tags left out.
UniProt P32300, whole entry: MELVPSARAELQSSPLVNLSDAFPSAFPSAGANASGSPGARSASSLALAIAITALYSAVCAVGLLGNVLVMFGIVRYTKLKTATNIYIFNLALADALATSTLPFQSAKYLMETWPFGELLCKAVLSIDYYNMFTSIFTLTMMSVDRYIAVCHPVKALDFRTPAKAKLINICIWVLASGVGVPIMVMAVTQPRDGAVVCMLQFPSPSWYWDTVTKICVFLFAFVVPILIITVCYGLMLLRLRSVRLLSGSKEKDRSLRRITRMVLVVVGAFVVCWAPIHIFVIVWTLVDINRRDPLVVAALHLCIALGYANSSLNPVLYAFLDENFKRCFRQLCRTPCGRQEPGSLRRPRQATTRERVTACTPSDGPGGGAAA
UniProt P33535, whole entry: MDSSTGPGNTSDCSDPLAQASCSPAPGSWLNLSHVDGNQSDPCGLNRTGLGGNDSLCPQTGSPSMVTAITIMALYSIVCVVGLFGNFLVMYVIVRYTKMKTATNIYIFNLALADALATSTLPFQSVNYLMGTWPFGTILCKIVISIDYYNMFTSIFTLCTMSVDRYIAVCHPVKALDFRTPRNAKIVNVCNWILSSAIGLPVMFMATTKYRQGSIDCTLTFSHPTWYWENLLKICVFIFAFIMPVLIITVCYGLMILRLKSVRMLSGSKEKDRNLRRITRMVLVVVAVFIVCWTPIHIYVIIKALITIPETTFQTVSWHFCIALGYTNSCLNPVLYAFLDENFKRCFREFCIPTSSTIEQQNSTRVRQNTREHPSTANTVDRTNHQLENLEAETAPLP

Tests used:
[1] = biological target: Delta-type opioid receptor (Mus musculus) (UniProt P32300); assay: Antagonist activity at delta opioid receptor in mouse vas deferens assessed as inhibition of DPDPE-stimulated muscle contraction; type: functional, tissue-based
Mu-type opioid receptor = Mu-type opioid receptor (Rattus norvegicus, UniProt P33535); assay: Displacement of [3H]DAMGO from mu opioid receptor in rat brain membrane; type: cell membranes
Rattus norvegicus = organism: Rattus norvegicus; assay: Selectivity ratio of Ki for rat delta opioid receptor to rat mu opioid receptor
[2] = Selectivity ratio of Ki for rat delta opioid receptor to guinea pig kappa opioid receptor

| SMILES | Ke [1] [nM] | Ki (Mu-type opioid receptor) [nM] | Ratio Ki (Rattus norvegicus) | Ratio Ki [2] |
| --- | --- | --- | --- | --- |
| Cc1cc(C(=O)NCCc2ccc(-c3ccccc3)cc2)cc(C)c1C[C@H](N)C(=O)N1Cc2ccccc2C[C@H]1C(=O)N[C@@H](Cc1ccccc1)C(=O)N[C@@H](Cc1ccccc1)C(=O)O | 3.07 |  |  |  |
| Cc1cc(C(N)=O)cc(C)c1C[C@H](N)C(=O)N1Cc2ccccc2C[C@H]1C(=O)N[C@@H](Cc1ccccc1)C(=O)N[C@@H](Cc1ccccc1)C(=O)O (H-[Phe(2,6-Me2,4-CONH2)][Tic]FF-OH) |  | 2210 | 4410 | > 2000 |
